For the data set the following is noted: anhydrous monomodal product, compared with a trihydrate form.

Take “N-(8-[2-hydroxybenzoyl]-amino) caprylic acid sodium salt [anhydrous monomodal SNAC sodium salt]”: the solubility in water entry is recorded as “good solubility in water, significantly higher than that of a trihydrate form”.

The values are drawn from patent US10875826B2, “Process for the manufacture of SNAC (salcaprozate sodium)” (Emisphere Technologies, Inc., priority 2006, dated 2020).
